For this series the following is noted: 10 mM phosphate buffer, 8 mg/ml, 37° C.

In turn, “8-arm-PEG20KDa-Quinidine α-methylbutanoate [quinidine conjugate]” yielded a half-life for hydrolysis of 46 h.

The values above are taken from US8183338B2, “Sterically hindered poly(ethylene glycol) alkanoic acids and derivatives thereof” (Nektar Therapeutics, priority 1999, dated 2012).
